Assay [1] deals with T1, THR-β (Homo sapiens, UniProt P10828).
T1 construct: A mixed solution of 4× TRα-LBD or TRβ-LBD and 4× RXRα was prepared
The experiment in a line: Agonistic activity on THR-β (TRβ-LBD/RXRα, biotin-SRC2-2 recruitment, fluorescence ratio 665 nm/615 nm). Format: biochemical. The settings on record: THR-α EC50 ÷ THR-β EC50. As for the experimental part: (§1) 100× solutions of reference compounds or compounds were prepared with DMSO and then diluted in a 1:3 equal ratio. The gradient dilution of 100× reference compound or compound was further diluted to 4× with 1× reaction buffer and then added to the test plate. A mixed solution of 4× TRα-LBD or TRβ-LBD and 4× RXRα was prepared with 1× reaction buffer and added to the test plate. […] The plate was centrifuged at 1000 rpm for 1 min and then incubated at room temperature and in the dark for 4 h.

Amino acid sequences for entries named in this document (tags omitted). Residues count along the entry.
UniProt P10828, 217-461 limits assumed: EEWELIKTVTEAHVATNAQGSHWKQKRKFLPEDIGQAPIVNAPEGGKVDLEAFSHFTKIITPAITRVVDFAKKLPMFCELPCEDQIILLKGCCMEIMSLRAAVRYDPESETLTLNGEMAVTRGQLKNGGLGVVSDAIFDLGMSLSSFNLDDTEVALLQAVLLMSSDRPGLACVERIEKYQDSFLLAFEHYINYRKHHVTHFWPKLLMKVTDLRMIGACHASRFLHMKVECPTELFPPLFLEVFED
UniProt P10827, 163-410 isoform P10827-2 limits assumed: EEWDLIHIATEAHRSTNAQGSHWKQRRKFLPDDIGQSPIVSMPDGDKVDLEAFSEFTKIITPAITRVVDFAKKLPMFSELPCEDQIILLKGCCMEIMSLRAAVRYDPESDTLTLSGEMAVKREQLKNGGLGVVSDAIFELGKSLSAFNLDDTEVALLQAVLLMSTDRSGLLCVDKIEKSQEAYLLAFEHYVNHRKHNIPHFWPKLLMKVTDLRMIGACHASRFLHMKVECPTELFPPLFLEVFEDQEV

Assay [2] deals with T2, THR-α (Homo sapiens, UniProt P10827).
T2 construct: A mixed solution of 4× TRα-LBD or TRβ-LBD and 4× RXRα was prepared
Nature of the assay: Agonistic activity on THR-α (TRα-LBD/RXRα, biotin-SRC2-2 recruitment, fluorescence ratio 665 nm/615 nm). Format: biochemical. The settings on record: in words, versus MGL-3196. The method, then:
as §1

As to `CC(C)c1cc(Oc2c(Cl)cc(-n3nc(C#N)c(=O)[nH]c3=O)cc2Br)n[nH]c1=O` [Compound 1, 2-(3-bronco-5-chloro-4-((5-isopropyl-6-oxo-1,6-dihydropyridazin-3-yl)oxy)phenyl)-3,5-dioxo-2,3,4,5-tetrahydro-1,2,4-triazine-6-nitrile], the “Selectivity THR-β/THR-α” value in assay [1] stood at 18.

Take `[2H]c1c(Oc2c(Cl)cc(-n3nc(C#N)c(=O)[nH]c3=O)cc2Br)n[nH]c(=O)c1C(C([2H])([2H])[2H])C([2H])([2H])[2H]` [Compound 3, 2-(3-bromo-5-chloro-4-((4-deutero-5-(1,1,1,3,3,3-hexadeuteropropyl-2-yl)-6-oxo-1,6-dihydropyrazin-3-yl)oxy)phenyl)-3,5-dioxy-2,3,4,5-tetrahydro-1,2,4-triazine-6-nitrile]: the “Selectivity THR-β/THR-α” value in assay [1] came to 22. In addition, the “Agonistic activity for THR-α compared to control compound MGL-3196” value in assay [2] is “significantly higher agonistic activities”.

`[2H]C([2H])([2H])C(c1cc(Oc2c(Cl)cc(-n3nc(C#N)c(=O)[nH]c3=O)cc2Br)n[nH]c1=O)C([2H])([2H])[2H]` [Compound 2, 2-(3-bromo-5-chloro-4-((5-di(trideuteromethyl)methyl-6-oxo-1,6-dihydropyridazine-3-yl)oxy)phenyl)-3,5-dioxo-2,3,4,5-tetrahydro-1,2,4-triazine-6-nitrile]: the “Selectivity THR-β/THR-α” value in assay [1] was 20.

These data come from patent US11926618B2, “Halogen-substituted phenylate compound and applications thereof” (HINOVA PHARMACEUTICALS INC., priority 2019, dated 2024).
